Laboratory results published in PubChem BioAssay AID720711 (National Center for Advancing Translational Sciences (NCATS), 2013).
The entries are a selection whose mix differs from that of the whole data set. Activity calls are given as the source filed them. The call rests on the fitted dose curve; in most records, active means well fitted activation curve with a large enough effect; inconclusive means small, poorly fitted or top-dose-only effect; inactive means no such curve, though single readings can be large or run the other way.

Sequences of proteins named here, by UniProt entry; tags and fusion partners are left off.
UniProt Q8WZA2, whole entry: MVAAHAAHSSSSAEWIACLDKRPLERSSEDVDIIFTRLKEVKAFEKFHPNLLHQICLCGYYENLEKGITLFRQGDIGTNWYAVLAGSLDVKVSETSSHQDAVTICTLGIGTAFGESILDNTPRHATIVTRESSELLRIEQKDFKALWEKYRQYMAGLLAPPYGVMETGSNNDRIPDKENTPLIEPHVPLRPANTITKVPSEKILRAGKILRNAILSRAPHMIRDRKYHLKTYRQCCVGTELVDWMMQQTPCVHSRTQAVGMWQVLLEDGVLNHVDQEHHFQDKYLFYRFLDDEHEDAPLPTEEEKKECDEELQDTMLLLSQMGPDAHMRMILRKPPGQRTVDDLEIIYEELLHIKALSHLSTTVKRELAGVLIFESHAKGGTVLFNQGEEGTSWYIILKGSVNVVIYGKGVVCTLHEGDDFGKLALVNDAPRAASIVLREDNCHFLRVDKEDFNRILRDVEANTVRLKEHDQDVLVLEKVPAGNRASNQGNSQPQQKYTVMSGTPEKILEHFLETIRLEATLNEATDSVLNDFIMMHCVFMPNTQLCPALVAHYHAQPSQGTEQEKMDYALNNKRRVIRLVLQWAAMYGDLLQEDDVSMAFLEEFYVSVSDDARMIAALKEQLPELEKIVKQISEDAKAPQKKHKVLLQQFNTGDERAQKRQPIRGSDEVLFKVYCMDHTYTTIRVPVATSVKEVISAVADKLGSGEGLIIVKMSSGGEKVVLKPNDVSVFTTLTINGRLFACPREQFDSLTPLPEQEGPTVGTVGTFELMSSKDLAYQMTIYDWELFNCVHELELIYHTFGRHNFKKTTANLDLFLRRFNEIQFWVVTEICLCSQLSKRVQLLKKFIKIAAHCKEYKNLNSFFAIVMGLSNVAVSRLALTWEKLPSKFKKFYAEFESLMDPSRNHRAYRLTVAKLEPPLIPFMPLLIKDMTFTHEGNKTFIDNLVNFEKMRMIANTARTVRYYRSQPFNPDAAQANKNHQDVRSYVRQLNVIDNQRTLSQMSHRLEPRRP

biological target: Rap guanine nucleotide exchange factor 4 (Homo sapiens) (UniProt Q8WZA2); experiment: qHTS for Agonist of cAMP-regulated guanine nucleotide exchange factor 4 (EPAC2): primary screen; conditions: biochemical qHTS, 100% = 6.5 mM cAMP response; at 154 µM (top of the series) unless noted; further: nearly all actives have a fitted effect of over 50% in size
Excerpt: In multi-cellular eukaryotic organisms, the effects of cAMP are transduced by two ubiquitously-expressed intracellular cAMP receptors, the classic protein kinase A/cAMP-dependent protein kinase (PKA/cAPK) and the more recently discovered exchange protein directly activated by cAMP/cAMP-regulated guanine nucleotide exchange factor (EPAC/cAMP-GEF). Both PKA and EPAC are ubiquitously expressed in all tissues, and an increase in intracellular cAMP levels will lead to the activation of both PKA and EPAC. Therefore, careful dissections of the individual role and relative contribution of EPAC and PKA within the overall cAMP signaling in various model systems are critical for further elucidating the mechanism of cAMP signaling. To date no EPAC-specific antagonists and agonist, as well as isoform-specific agonists have been reported, and developing EPAC-specific pharmacological probes to determine the physiological functions that EPAC play in the overall cAMP-mediated signaling remains a major challenge within the research field. Furthermore, identified regulators of EPAC may lead to new mechanism-based therapeutic strategies specifically targeting the EPAC / cAMP-signaling components as EPAC has been implicated to play important roles in major human pathological conditions such as diabetes, heart disease, and cancer.
This qHTS will be used to screen the Molecular Libraries Small Molecule Repository (MLSMR) as a concentration-titration series using the NCGC unique quantitative screening (qHTS) platform to find activators for EPAC2. In addition, this assay will also be used as a counterscreen for the EPAC1 qHTS. This fluorescent based assay is developed and validated for EPAC2 that measures exchange using EPAC effector Rap1 complex with BODIPY-GDP, a GDP analog with a tethered fluorophores. Activators are identified by monitoring the change in fluorescence signal as the exchanged free BODIPY-GDP has a reduced fluorescence compared to Rap1-bound BODIPY-GDP. […] in signal (activation) is the desired outcome for the EPAC2 agonist while no activity in this assay is desired for the EPAC1 agonist counterscreen.
[1] de Rooij, J., Zwartkruis, F. J., Verheijen, M. H., Cool, R. H., Nijman, S. M., Wittinghofer, A., and Bos, J.L. (1998) Nature 396, 474-477
[2] Kawasaki, H., Springett, G. M., Mochizuki, N., Toki, S., Nakaya, M., Matsuda, M., Housman, D. E., and Graybiel, A. M. (1998) Science 282, 2275-2279
NIH Chemical Genomics Center [NCGC]
NIH Molecular Libraries Probe Centers Network [MLPCN]
Assay Submitter (PI): Xiaodong Cheng, The University of Texas, Medical Branch
Briefly, three uL of reagents (100 nM EPAC2, 250 nM RAP1B-BODIPY-GDP, 50 uM GDP) were dispensed into a 1536-well Greiner black solid-bottom medium binding assay plate. Controls and test compounds (23 nL) were transferred to the plate via a Kalypsys pin tool equipped with a 1536-pin array. The plates were centrifuged at 1,000 rpm for 15 seconds followed by 5 minute incubation at room temperature. The assay plates were read at 5 minute intervals for 30 minutes in the ViewLux plate reader using 480nm excitation and 540nm emission filters. The results were normalized to the agonist positive control of 6.5 mM cAMP.

Row | Structure (SMILES) | activation
1 | COc1ccccc1OP(C)(=O)Nc1ccc(Br)cc1 (stereo unspecified) | inactive: -3.45%
2 | COc1ccc(OP(C)(=O)Nc2ccccn2)cc1 (stereo unspecified) | inactive: 6.94%
3 | CN(C)CCOC(=O)C(O)(c1ccccc1)C1CCCC1 (stereo unspecified) | inactive: 4.8%
4 | Cc1c(NP(C)(=O)Oc2ccc(C(C)C)cc2)c(=O)n(-c2ccccc2)n1C (stereo unspecified) | inactive: 0.527%
5 | O=[N+]([O-])c1cc([N+](=O)[O-])c(Nc2ccccn2)c([N+](=O)[O-])c1 | inactive: -2.09%
6 | CP(=O)(Nc1ccccn1)Oc1ccccc1 (stereo unspecified) | inactive: 0.921%
7 | COc1ccccc1OP(C)(=O)Nc1ccc(C)cc1C (stereo unspecified) | inactive: 3.26%
8 | CCc1ccc(OP(C)(=O)O)cc1 | inactive: -84.9% [at 15.6 µM]
9 | Cc1cc(C)cc(OP(C)(=O)Nc2cccc(C(F)(F)F)c2)c1 (stereo unspecified) | inactive: 1.46%
10 | COc1ccccc1OP(C)(=O)Nc1ccc(C)c(C)c1 (stereo unspecified) | inactive: 26.6%
11 | COc1ccc(OP(C)(=O)Nc2ccccc2Br)cc1 (stereo unspecified) | inactive: -1.96%
12 | CCCCCCCCCCCCCCCC1C[N+](C)(C)CCOP(C)(=O)O1 (stereo unspecified) | inactive: 2.35%
13 | CP(=O)(Nc1ccc(Cl)cc1Cl)Oc1ccccc1 (stereo unspecified) | inactive: -0.325%
14 | CP(=O)(OCCOc1ccccc1)OCCOc1ccccc1 | inactive: 7.38%
15 | Nc1ccc2c(ccc3cccnc32)n1.O=[N+]([O-])c1cc([N+](=O)[O-])c(O)c([N+](=O)[O-])c1 | inactive: 1.57%
16 | CCOC(=O)c1ccc(NP(C)(=O)Oc2ccc(Cl)cc2)cc1 (stereo unspecified) | inactive: -8.03%
17 | CP(=O)(OC12CC3CC(CC(C3)C1)C2)OC12CC3CC(CC(C3)C1)C2 | inactive: -0.323%
18 | CCN(CC)CC(O)COC(=O)C(O)(c1ccccc1)C1CCCCC1 (stereo unspecified) | inactive: 0.0695%
19 | COc1ccc(OP(C)(=O)Nc2ccc(Br)cc2)cc1 (stereo unspecified) | inactive: -6.23%

Row | Structure (SMILES) | activation
20 | COc1ccccc1OP(C)(=O)Nc1c(C)n(C)n(-c2ccccc2)c1=O (stereo unspecified) | inactive: 3.56%
21 | O=C(OCCCN1CCCC1)C(O)(c1ccccc1)C1CCCCC1 (stereo unspecified) | inactive: 3.24%
22 | CP(=O)(Oc1ccccc1)N1CCOC1=O (stereo unspecified) | inactive: -2.49%
23 | CCc1ccc(OP(C)(=O)Nc2cccnc2)cc1 (stereo unspecified) | inactive: -0.811%
24 | COc1ccccc1OP(C)(=O)Nc1ccccc1Br (stereo unspecified) | inactive: -19%
25 | CC(C)(C)c1ccc(OP(C)(=O)O)cc1 | inactive: 3.35%
26 | CP(=O)(Nc1ccc(Cl)cc1)Oc1ccc(F)cc1 (stereo unspecified) | inactive: 5.31%
27 | CN(C)C(=O)c1c([N+](=O)[O-])cc([N+](=O)[O-])cc1[N+](=O)[O-] | inactive: -3.17%
28 | CP(=O)(Nc1ccc(SC(F)(F)F)cc1)Oc1ccc(F)cc1 (stereo unspecified) | inactive: 2.78%
29 | CCOP(C)(=S)SCC(=O)NC(C)(CC)C(=O)O (stereo unspecified) | inactive: 5.61%
30 | CP(=O)(Nc1ccc2c(c1)OCCO2)Oc1ccccc1 (stereo unspecified) | inactive: 13.1%
31 | Cc1ccccc1NP(C)(=O)Nc1ccccc1C | inactive: 0.253%
32 | O=[N+]([O-])c1cc([N+](=O)[O-])c(C(F)(F)F)c([N+](=O)[O-])c1O | inactive: -3.86%
33 | COc1ccc(OP(C)(=O)Nc2cccc(Br)c2)cc1 (stereo unspecified) | inactive: 6.27%
34 | CN(C)CCOC(=O)C(O)(c1ccccc1)C1CCCCC1 (stereo unspecified) | inactive: 8.2%
35 | COc1ccc(NP(C)(=O)Oc2ccccc2OC)cc1 (stereo unspecified) | inactive: -6.64%
36 | O=[N+]([O-])c1ccc(OP2(=O)COCCO2)cc1 (stereo unspecified) | inactive: 16%
37 | Cc1cc(-c2cccc3ccccc23)c(C)cn1.O=[N+]([O-])c1cc([N+](=O)[O-])c(O)c([N+](=O)[O-])c1 | inactive: -0.365%
38 | Cc1c(C(c2ccc3c(c2)OCO3)c2c(C)n(C)n(-c3ccccc3)c2=O)c(=O)n(-c2ccccc2)n1C.O=[N+]([O-])c1cc([N+](=O)[O-])c(O)c([N+](=O)[O-])c1 | inactive: 2.79%

Row | Structure (SMILES) | activation
39 | CCOC(=O)c1ccc(NP(C)(=O)Oc2ccc(F)cc2)cc1 (stereo unspecified) | inactive: -3.28%
40 | COc1ccc(OP(C)(=O)Nc2ccc(SC(F)(F)F)cc2)cc1 (stereo unspecified) | inactive: -8.58%
41 | Cc1c([N+](=O)[O-])cc([N+](=O)[O-])c(Br)c1[N+](=O)[O-] | inactive: -6.82%
42 | CCN(CC)CCCOC(=O)C(O)(c1ccccc1)C1CCCCC1 (stereo unspecified) | inactive: 3.89%
43 | CP(=O)(Nc1ccccc1)Oc1ccc(F)cc1 (stereo unspecified) | inactive: -6.56%
44 | CCCCCOc1ccc(NP(C)(=O)Oc2ccc(Cl)cc2Cl)cc1 (stereo unspecified) | inactive: -15.8%
45 | CP(=O)(Nc1ccccc1F)Oc1ccccc1 (stereo unspecified) | inactive: 6.7%
46 | CC(C)c1ccc(OP(C)(=O)Nc2ccc(SC(F)(F)F)cc2)cc1 (stereo unspecified) | inactive: -26.5%
47 | O=C(OCCN1CCN(CCOCc2ccccc2)CC1)C(O)(c1ccccc1)c1ccccc1 | inactive: 11.1%
48 | COc1ccccc1OP(C)(=O)Nc1cccc(Br)c1 (stereo unspecified) | inactive: -1.39%
49 | CCOC(=O)c1ccc(NP(C)(=O)Oc2cc(C)cc(C)c2)cc1 (stereo unspecified) | inactive: -2.34%
50 | Cc1cc(C)cc(OP(C)(=O)Nc2ccc(C)cc2C)c1 (stereo unspecified) | inactive: -1.97%
51 | Cc1ccc(C)c(NP(C)(=O)Oc2ccccc2)c1 (stereo unspecified) | inactive: 4.34%
52 | Cc1cc(C)cc(OP(C)(=O)Nc2ccccn2)c1 (stereo unspecified) | inactive: 6.65%
53 | CP(=O)(Nc1cccc(Br)c1)Oc1ccccc1 (stereo unspecified) | inactive: -0.301%
54 | CC1=NCCc2c1[nH]c1ccccc21.O=[N+]([O-])c1cc([N+](=O)[O-])c(O)c([N+](=O)[O-])c1 | inactive: 13.5%
55 | CC1=C2N=C(C=C3N=C(C(C)=C4[N-][C@@](C)([C@@H]5N=C1[C@](C)(CCC(=O)NC[C@@H](C)OP(=O)([O-])O[C@H]1[C@@H](O)[C@@H](n6cnc7cc(C)c(C)cc76)O[C@@H]1CO)[C@H]5CC(N)=O)[C@@](C)(CC(N)=O)[C@@H]4CCC(N)=O)[C@@](C)(CC(N)=O)[C@@H]3CCC(N)=O)C(C)(C)[C@@H]2CCC(N)=O.[C-]#N.[Co+3] | inactive: 11.4%
56 | O=[N+]([O-])c1cc([N+](=O)[O-])c(Nc2nnnn2CCO)c([N+](=O)[O-])c1 | inactive: 5.22%
